Chains of the proteins cited; added tags and fusions are not shown.
UniProt O75874, whole entry R132H: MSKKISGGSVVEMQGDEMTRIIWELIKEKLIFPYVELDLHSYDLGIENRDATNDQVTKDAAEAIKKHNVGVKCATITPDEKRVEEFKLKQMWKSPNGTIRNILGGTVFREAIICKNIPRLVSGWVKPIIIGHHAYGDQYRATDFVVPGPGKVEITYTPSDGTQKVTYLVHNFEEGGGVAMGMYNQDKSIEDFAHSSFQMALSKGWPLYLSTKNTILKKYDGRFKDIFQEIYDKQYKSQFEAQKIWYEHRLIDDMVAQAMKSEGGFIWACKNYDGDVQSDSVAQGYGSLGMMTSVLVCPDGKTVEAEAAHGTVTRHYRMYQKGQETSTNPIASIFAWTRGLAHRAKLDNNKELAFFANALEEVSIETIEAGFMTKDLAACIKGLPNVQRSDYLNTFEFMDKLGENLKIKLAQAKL

In patent US10442819B2, “Tricyclic compounds as inhibitors of mutant IDH enzymes” (Merck Sharp & Dohme Corp., priority 2014, dated 2019):

Biological target: R132H mutant IDH1 enzyme (Homo sapiens (Human), UniProt O75874, R132H)
Assay: R132H IDH1 Enzymatic Assay
Assay type: biochemical
Settings: R132H mutant IDH1 enzyme 1.5 nM final; luminescence readout; read-out: IC50

IC50	Compound
43 nM	C[C@H](N(C)[C@H]1CC[C@@H](C(=O)N2Cc3cccnc3Nc3ccc(C4CCOCC4)cc32)CC1)C(F)(F)F [Example 507, cis-N-methyl-4-{[8-(tetrahydro-2H-pyran-4-yl)-5,11-dihydro-6H-pyrido[2,3-b][1,5]benzodiazepin-6-yl]carbonyl}-N-[(1S)-2,2,2-trifluoro-1-methylethyl]cyclohexanamine]
636 nM	COCC1CCC(C(=O)N2Cc3cccnc3Nc3ccc(N4CCOCC4)cc32)CC1 (centres unmarked) [Example 84, 6-{[4-(methoxymethyl)cyclo-hexyl]carbonyl}-8-morpholin-4-yl-6,11-dihydro-5H-pyrido[2,3-b][1,5]benzodiazepine]
165 nM	COCCN(CCOC)c1ccc2c(c1)N(C(=O)[C@H]1CC[C@@H](OC)CC1)Cc1cccnc1N2 [Example 241, 6-[(cis-4-methoxycyclohexyl)carbonyl]-N,N-bis(2-methoxyethyl)-6,11-dihydro-5H-pyrido[2,3-b][1,5]benzodiazepin-8-amine]
19 nM	O=C(C1CCN(CC(F)(F)F)CC1)N1Cc2cccnc2Nc2ccc(N3CC4(CCCOC4)C3)cc21 [Example 328, 8-(6-oxa-2-azaspiro[3.5]non-2-yl)-6-{[1-(2,2,2-trifluoroethyl)piperidin-4-yl]carbonyl}-6,11-dihydro-5H-pyrido[2,3-b][1,5]benzodiazepine]
291 nM	CO[C@H]1CC[C@H](C(=O)N2Cc3cccnc3Nc3ccc(-c4cnn(CCO)c4)cc32)CC1 [Example 366, 2-(4-{6-[(trans-4-methoxycyclohexyl)carbonyl]-6,11-dihydro-5H-pyrido[2,3-b][1,5]benzodiazepin-8-yl}-1H-pyrazol-1-yl)ethanol]
35 nM	CC(C)O[C@H]1CC[C@H](C(=O)N2Cc3cccnc3Nc3ccc([C@H]4COC[C@H]4C)cc32)OC1 (single isomer, unassigned) [Example 536]
18 nM	CCO[C@H]1CC[C@H](C(=O)N2Cc3cccnc3Nc3ccc(N4C[C@@H]5CC[C@H]4CO5)cc32)CC1(F)F (single isomer, unassigned) [Example 324]
69 nM	O=C([C@H]1CC[C@@H](O[C@@H]2CC2(F)F)CC1)N1Cc2cccnc2Nc2ccc(N3CCOCC3)cc21 [Example 103, 6-[(cis-4-{[(1R)-2,2-difluorocyclopropyl]oxy}-cyclohexyl)carbonyl]-8-morpholin-4-yl-6,11-dihydro-5H-pyrido[2,3-b][1,5]benzodiazepine]
39 nM	CC(C)O[C@H]1CC[C@H](C(=O)N2Cc3cccnc3Nc3ccc(N4CC5CCC4CO5)cc32)CC1 (single isomer, unassigned) [Example 191, 6-{[Trans-4-(1-methylethoxy)cyclohexyl]carbonyl}-8-(2-oxa-5-azabicyclo[2.2.2]oct-5-yl)-6,11-dihydro-5H-pyrido[2,3-b][1,5]benzodiazepine]
194 nM	CCO[C@H]1CC[C@H](C(=O)N2Cc3cccnc3Nc3ccc(N4CCOCC4)cc32)CC1 [Example 113, 6-[(trans-4-ethoxycyclohexyl)carbon-yl]-8-morpholin-4-yl-6,11-dihydro-5H-pyrido[2,3-b][1,5]benzodiazepine]
61 nM	CO[C@@H]1CC[C@@H](C(=O)N2Cc3cccnc3Nc3ccc(N4CCOCC4)cc32)C[C@@H]1C(F)(F)F (single isomer, unassigned) [Example 99]
271 nM	CO[C@H]1CC[C@H](C(=O)N2Cc3cccnc3Nc3ccc(N4CC(OC(C)C)C4)cc32)CC1 [Example 285, 6-[(trans-4-methoxycyclohexyl)carbonyl]-8-[3-(1-methylethoxy)azetidin-1-yl]-6,11-dihydro-5H-pyrido[2,3-b][1,5]benzodiazepine]
68 nM	CO[C@H](C(C)C)[C@H]1CC[C@H](C(=O)N2Cc3cccnc3Nc3ccc(N4CCOCC4)cc32)CC1 [Example 119, 6-({trans-4-[(1R)-1-methoxy-2-methylpropyl]cyclohexyl}-carbonyl)-8-morpholin-4-yl-6,11-dihydro-5H-pyrido[2,3-b][1,5]benzodiazepine]
686 nM	CCC1CN(c2ccc3c(c2)N(C(=O)[C@H]2CC[C@H](OC)CC2)Cc2cccnc2N3)CCO1 (stereo partly drawn) [Example 232, 8-(2-ethylmorpholin-4-yl)-6-[(trans-4-methoxycyclohexyl)carbonyl]-6,11-dihydro-5H-pyrido[2,3-b][1,5]benzodiazepine]
300 nM	CO[C@H]1CC[C@H](C(=O)N2Cc3cccnc3Nc3ccc(N4CC(C#N)C4)cc32)CC1 [Example 413, 1-{6-[(trans-4-methoxycyclohexyl)carbonyl]-6,11-dihydro-5H-pyrido[2,3-b][1,5]benzodiazepin-8-yl}azetidine-3-carbonitrile]
221 nM	CO[C@H]1CC[C@H](C(=O)N2Cc3cccnc3Nc3ccc(N4CCOC(c5ccccc5)C4)cc32)CC1 (stereo partly drawn) [Example 257, 6-[(trans-4-methoxycyclohexyl)carbonyl]-8-(2-phenylmorpholin-4-yl)-6,11-dihydro-5H-pyrido[2,3-b][1,5]benzodiazepine]
480 nM	O=C(C1CC(NC2(C(F)(F)F)CC2)C1)N1Cc2cccnc2Nc2ccc(N3CCOCC3)cc21 (centres unmarked) [Example 476, 3-[(8-morpholin-4-yl-5,11-dihydro-6H-pyrido[2,3-b][1,5]benzodiazepin-6-yl)carbonyl]-N-[1-(trifluoromethyl)cyclopropyl]-cyclobutanamine]
175 nM	CCO[C@H]1CC[C@@H](C(=O)N2Cc3cccnc3Nc3ccc(N4C[C@@H]5C[C@H]4CO5)cc32)CC1 [Example 311, 6-[(cis-4-ethoxycyclohexyl)carbonyl]-8-[(1S,4S)-2-oxa-5-azabicyclo[2.2.1]hept-5-yl]-6,11-dihydro-5H-pyrido[2,3-b][1,5]benzodiazepine]
56 nM	O=C([C@H]1CC[C@H](NC2(C(F)(F)F)CC2)CC1)N1Cc2cccnc2Nc2ccc(N3CCOCC3)cc21 [Example 443, trans-4-[(8-morpholin-4-yl-5,11-dihydro-6H-pyrido[2,3-b][1,5]benzodiazepin-6-yl)carbonyl]-N-[1-(trifluoromethyl)cyclopropyl]-cyclohexanamine]
223 nM	CO[C@H]1CC[C@H](C(=O)N2Cc3cccnc3Nc3ccc(N4C[C@H]5COC[C@H]5C4)cc32)CC1 [Example 284, 6-[(trans-4-methoxycyclohexyl)carbonyl]-8-[(3aR,6aS)-tetrahydro-1H-furo[3,4-c]pyrrol-5(3H)-yl]-6,11-dihydro-5H-pyrido[2,3-b][1,5]benzodiazepine]
62 nM	O=C([C@H]1CC[C@H](NCC(F)(F)F)CC1)N1Cc2cccnc2Nc2ccc([C@@H]3CCCOC3)cc21 (single isomer, unassigned) [Example 375]
337 nM	CC1(C)CC(C(=O)N2Cc3cccnc3Nc3ccc(Br)cc32)C1 [Example 57, 8-bromo-6-[(3,3-dimethylcyclobutyl)car-bonyl]-6,11-dihydro-5H-pyrido[2,3-b][1,5]benzodiazepine]

Compound	IC50
CO[C@H]1C[C@H]2CC[C@@H](C1)N2c1ccc2c(c1)N(C(=O)C1CCCN(CC(F)(F)F)CC1)Cc1cccnc1N2 (stereo partly drawn) [Example 343, 8-[(3-endo)-3-methoxy-8-azabicyclo[3.2.1]oct-8-yl]-6-{[1-(2,2,2-trifluoroethyl)azepan-4-yl]carbonyl}-6,11-dihydro-5H-pyrido[2,3-b][1,5]benzodiazepine]	24 nM
